Earlier results in PMC8215855 (Journal of medicinal chemistry, 2020).

Molecular target: SphK2
Conditions: read-out: SphK2 Ki; previous work in the group; cited from earlier work

CCCCCCCCc1ccc(-c2noc([C@@H]3CCCN3C(=N)N)n2)cc1 [Compound 7]
Ki: 1300 nM
